Test results taken from DBAASP.

Tests used:
[1] = test system: Staphylococcus aureus ATCC 12600; test: ≥ marks a high value that may be exact or a test limit, other limits are often not marked, values filed in µg/mL are converted to µM
[2] = test system: Escherichia coli K-12; test: as above

SMILES | MIC [1] [µM] | MIC [2] [µM]
CC[C@H](C)[C@H](NC(=O)[C@H](CCCCN)NC(=O)[C@H](CCCCN)NC(=O)[C@H](CC(C)C)NC(=O)[C@H](C)NC(=O)CNC(=O)[C@@H](NC(=O)[C@H](C)NC(=O)[C@H](CCCCN)NC(=O)[C@@H]1CCCN1C(=O)[C@H](CC(C)C)NC(=O)[C@H](CC(C)C)NC(=O)[C@H](CCCCN)NC(=O)[C@H](Cc1ccccc1)NC(=O)[C@H](Cc1ccccc1)NC(=O)[C@@H](N)Cc1ccccc1)[C@@H](C)CC)C(=O)O [FFFKLLPKAIGALKKI] | ≥ 64 | 
CC[C@H](C)[C@H](NC(=O)[C@H](CC(C)C)NC(=O)[C@@H]1CCCN1C(=O)[C@H](CCCCN)NC(=O)[C@H](C)NC(=O)[C@@H](NC(=O)[C@@H](NC(=O)[C@@H](NC(=O)[C@@H](NC(=O)[C@H](CCCCN)NC(=O)[C@H](CCCCN)NC(=O)[C@H](CC(C)C)NC(=O)[C@@H](NC(=O)[C@H](CO)NC(=O)[C@@H](NC(=O)[C@H](CC(C)C)NC(=O)[C@H](CCCCN)NC(=O)[C@H](CCCCN)NC(=O)[C@@H](NC(=O)[C@H](Cc1ccccc1)NC(=O)[C@H](CO)NC(=O)[C@H](CCCCN)NC(=O)[C@H](Cc1c[nH]c2ccccc12)NC(=O)[C@@H](N)CCCCN)[C@@H](C)CC)[C@@H](C)O)C(C)C)C(C)C)C(C)C)[C@@H](C)O)[C@@H](C)O)C(=O)N[C@@H](CO)C(=O)N[C@@H](CO)C(=O)O [KWKSFIKKLTSVLKKVVTTAKPLISS] | ≥ 32 | 4 (≈ 11.7 µg/mL)
CC(C)C[C@H](NC(=O)[C@@H](NC(=O)[C@H](CCCCN)NC(=O)[C@H](CCCCN)NC(=O)[C@@H](NC(=O)[C@H](CCCN=C(N)N)NC(=O)[C@H](CCCCN)NC(=O)[C@@H](NC(=O)[C@@H](N)CC(C)C)C(C)C)C(C)C)C(C)C)C(=O)O [LVKRVKKVL] | ≥ 128 | 
CC(C)C[C@H](NC(=O)[C@H](CC(N)=O)NC(=O)[C@H](CCC(=O)O)NC(=O)[C@H](CC(N)=O)NC(=O)[C@H](CC(C)C)NC(=O)[C@@H](N)C(C)C)C(=O)N[C@@H](CCCN=C(N)N)C(=O)N[C@@H](CCCN=C(N)N)C(=O)O [VLNENLRR] |  | ≥ 128
CSCC[C@H](NC(=O)[C@H](Cc1cnc[nH]1)NC(=O)[C@H](C)NC(=O)[C@H](CCSC)NC(=O)[C@@H](NC(=O)[C@H](CCCCN)NC(=O)[C@@H]1CCCN1C(=O)[C@H](CC(C)C)NC(=O)[C@@H](N)C(C)C)C(C)C)C(=O)N[C@@H](CCCCN)C(=O)O [VLPKVMAHMK] | ≥ 128 | ≥ 64

≈ marks a conversion by molar mass, not a printed value.
